{
  "source": "patent US7691382B2",
  "about": "“Antiviral polypeptides comprising tandem repeats of APOE 141-149 and variants thereof” (priority 2003, dated 2010)",
  "system": "HSV1",
  "assay_type": "cell-based, Human herpes simplex virus type 1",
  "method": "African Green Monkey Kidney (Vero) cells were maintained in Eagle's minimum essential medium with Earle's salt (EMEM) and supplemented with 10% foetal calf serum (heat-inactivated), 4 mM L-glutamine, and 1% (v/v) nonessential amino acids, plus penicillin and streptomycin (100 IU/mg and […], respectively) (maintenance medium referred to as 10% EMEM). The cells were incubated at 37° C. in a humidified atmosphere of air with 5% CO2.\nOn harvesting, monolayers were washed in phosphate-buffered saline (PBS), and dislodged by incubating with trypsin in PBS for 30 min, before inactivating trypsin by addition of an equal volume of 10% EMEM and centrifuging at 500 g (5 min, 4° C.). Cell pellets were resuspended in 10% EMEM, prior to cell counting and seeding of 24-well plates. For antiviral assays, medium containing only 0.5% FCS was used (referred to as 0.5% EMEM).\nThree separate passages of HSV1 virus were prepared by infecting Vero cells, and preparing semi-pure suspensions of virus from tissue culture supernatant and cell lysates, before freezing aliquots of virus at −85° C. Viral infectivity was assessed by carrying out plaque assays on serial dilutions of thawed aliquots (expressed in pfu/ml).\nPeptides were obtained in lyophilised form from a commercial supplier (AltaBioscience, University of Birmingham or Advanced Biomedical), and were produced at 5 micromole scale. N-terminals were protected by addition of an acetyl group, and the C-terminals were protected by addition of an amide group.\nSmall quantities of peptide were weighed in sterile Eppendorf tubes, before addition of sufficient 0.5% EMEM to produce a 1.5 mM stock solution, which was frozen at −20° C. in aliquots.\nVero cells were seeded at 125,000 cells per well in 10% EMEM, and were incubated overnight resulting in confluent monolayers. […] Plaques were counted using an Olympus IX70 Inverting Microscope, and antiviral effect expressed as a percentage of the control value for each peptide concentration. The IC50 was calculated from plots of inhibitory effect against peptide concentration. […]",
  "note": "Read-outs that look alike come from different tables or passages of the source.",
  "data": [
    {"smiles": "CC(=O)N[C@@H](CCC(N)=O)C(=O)N[C@@H](CO)C(=O)N[C@H](C(=O)N[C@@H](CCC(=O)O)C(=O)N[C@@H](CCC(=O)O)C(=O)N[C@@H](CC(C)C)C(=O)N[C@@H](CCCNC(=N)N)C(=O)N[C@H](C(=O)N[C@@H](CCCNC(=N)N)C(=O)N[C@@H](CC(C)C)C(=O)N[C@@H](C)C(=O)N[C@@H](CO)C(=O)N[C@@H](Cc1c[nH]cn1)C(=O)N[C@@H](CC(C)C)C(=O)N[C@@H](CCCNC(=N)N)C(=O)N[C@@H](CCCCN)C(=O)N[C@@H](CC(C)C)C(=O)N[C@@H](CCCNC(=N)N)C(=O)N[C@@H](CCCCN)C(=O)N[C@@H](CCCNC(=N)N)C(=O)N[C@@H](CC(C)C)C(=O)N[C@@H](CC(C)C)C(N)=O)C(C)C)[C@@H](C)O", "note": "[GIN 11]", "values": [
      {"measurement": "efficacy for reducing HSV1 infectivity (in words)", "setting": "Examples 2 and 3", "result": "no, or poor, efficacy"},
      {"measurement": "IC50", "setting": "HSV1, Vero cells, Table 4 (Example 2), read-out: Apparent IC50", "result": 36.5, "unit": "µM"},
      {"measurement": "IC50", "setting": "HSV-1, Vero cells, Table 6 (Example 3), read-out: IC50", "result": 36.5, "unit": "µM"}
    ]}
  ]
}
